Reference: ChEMBL document CHEMBL1129649, “A novel series of (phenoxyalkyl)imidazoles as potent H3-receptor histamine antagonists” (J Med Chem, 1996)

Chains of the proteins cited; added tags and fusions are not shown. Lines headed by an entry give the natural chain unless they say otherwise; changes in a name come on top.
UniProt Q9QYN8: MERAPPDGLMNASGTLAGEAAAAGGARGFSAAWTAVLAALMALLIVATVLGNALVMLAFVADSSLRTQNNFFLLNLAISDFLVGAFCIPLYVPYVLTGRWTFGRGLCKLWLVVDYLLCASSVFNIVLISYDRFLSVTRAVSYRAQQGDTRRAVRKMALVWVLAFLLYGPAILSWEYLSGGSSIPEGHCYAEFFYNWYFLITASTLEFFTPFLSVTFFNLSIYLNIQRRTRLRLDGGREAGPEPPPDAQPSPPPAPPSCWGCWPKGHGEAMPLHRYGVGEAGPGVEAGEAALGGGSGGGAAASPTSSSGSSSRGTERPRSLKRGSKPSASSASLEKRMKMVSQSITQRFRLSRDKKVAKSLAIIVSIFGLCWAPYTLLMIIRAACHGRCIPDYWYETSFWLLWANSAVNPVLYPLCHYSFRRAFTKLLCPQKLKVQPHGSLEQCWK

Target: Histamine H3 receptor (Rattus norvegicus, UniProt Q9QYN8)
Assay: Rat Histamine H3 receptor antagonism determined by [K+] - evoked depolarization-induced release of [3H]histamine from rat cerebral cortex synaptosomes
Format: functional, subcellular, Brain

With `N#Cc1ccccc1OCCc1c[nH]cn1` the Ki was 483 nM.
